Here are results for four compounds from PubChem BioAssay AID1224863 (Southern Research Institute, 2016).

Chains of the proteins cited; added tags and fusions are not shown.
UniProt P13569, whole entry, looked up: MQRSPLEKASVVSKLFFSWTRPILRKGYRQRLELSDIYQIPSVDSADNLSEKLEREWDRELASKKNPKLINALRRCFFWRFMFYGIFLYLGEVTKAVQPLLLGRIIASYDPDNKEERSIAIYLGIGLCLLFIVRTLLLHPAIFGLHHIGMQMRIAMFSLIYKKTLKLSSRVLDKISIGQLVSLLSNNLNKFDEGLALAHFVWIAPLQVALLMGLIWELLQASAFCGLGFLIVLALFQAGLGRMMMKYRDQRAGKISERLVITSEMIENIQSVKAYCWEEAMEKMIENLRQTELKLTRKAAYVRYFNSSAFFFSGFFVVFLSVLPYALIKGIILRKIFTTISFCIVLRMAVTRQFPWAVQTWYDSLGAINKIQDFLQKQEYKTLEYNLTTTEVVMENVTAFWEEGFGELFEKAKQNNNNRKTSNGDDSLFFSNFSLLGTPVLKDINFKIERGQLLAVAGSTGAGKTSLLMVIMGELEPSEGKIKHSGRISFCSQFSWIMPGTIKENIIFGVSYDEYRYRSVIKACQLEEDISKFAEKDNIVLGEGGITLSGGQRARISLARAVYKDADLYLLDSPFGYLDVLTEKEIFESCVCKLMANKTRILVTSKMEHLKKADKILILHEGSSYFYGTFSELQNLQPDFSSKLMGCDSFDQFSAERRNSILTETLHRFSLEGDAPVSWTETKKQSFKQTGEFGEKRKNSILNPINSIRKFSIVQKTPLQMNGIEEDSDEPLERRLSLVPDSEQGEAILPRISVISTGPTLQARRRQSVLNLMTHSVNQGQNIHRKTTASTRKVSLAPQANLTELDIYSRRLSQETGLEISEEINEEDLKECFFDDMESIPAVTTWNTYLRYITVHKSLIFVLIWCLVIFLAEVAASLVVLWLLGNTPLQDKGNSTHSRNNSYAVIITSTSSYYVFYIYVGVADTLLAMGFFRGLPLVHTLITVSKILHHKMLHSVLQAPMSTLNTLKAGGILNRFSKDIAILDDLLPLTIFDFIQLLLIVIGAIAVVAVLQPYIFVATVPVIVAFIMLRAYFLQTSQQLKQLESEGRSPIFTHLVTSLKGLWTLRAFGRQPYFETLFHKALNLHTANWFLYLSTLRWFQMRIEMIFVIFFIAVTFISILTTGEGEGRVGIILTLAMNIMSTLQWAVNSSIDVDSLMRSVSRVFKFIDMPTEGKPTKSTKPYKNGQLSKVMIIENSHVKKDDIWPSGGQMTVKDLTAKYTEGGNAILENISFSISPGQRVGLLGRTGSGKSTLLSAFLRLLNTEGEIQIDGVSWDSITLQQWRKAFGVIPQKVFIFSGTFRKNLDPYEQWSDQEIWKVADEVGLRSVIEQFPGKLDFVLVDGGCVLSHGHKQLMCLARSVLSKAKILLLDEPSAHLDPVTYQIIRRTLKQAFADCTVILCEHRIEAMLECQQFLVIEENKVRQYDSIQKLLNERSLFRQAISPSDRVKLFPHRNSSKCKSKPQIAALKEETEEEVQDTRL

The list shows a part of the results, in another mix than the full data. Calls of active or inactive are those of the source.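 How the source made its calls: active means highest signal at least 8 times that of the reference protease inhibitor control at some dose; inactive means the rest.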

This experiment deals with Cystic fibrosis transmembrane conductance regulator (Homo sapiens) (UniProt P13569). Nature of the experiment: compounds raising F508del-CFTR protein level – cell-based, HeLa F508del-CFTR, immunofluorescence, viability, primary screen (AID 1224863). The settings on record: immunofluorescence total CFTR, 24 h, library dosed in µM.
Regarding `O=C(OC1CN2CCC1CC2)c1ccccc1` (centres undefined), the call was inactive.

Take `O=C(O[C@H]1CN2CCC1CC2)C1NCc2ccccc2[C@@H]1c1ccccc1` (some centres undefined): the compound was called inactive.

Turning to `O=P(O)(O)F`, the result was inactive.

In the case of `NC(=O)Nc1ccc([As](=O)(O)O)cc1`, the compound was called inactive.
